Earlier results on 1 substance are cited in patent publication US9896711B2, “Fluorogenic or fluorophoric compounds and uses thereof” (3M INNOVATIVE PROPERTIES COMPANY, priority 2011, dated 2018).

The conditions of this data set: see Bioorg. and Med. Chem. Lett., 8, 3107-3110 (1998); cited from earlier work.

For the substance “6,8-difluoro-3-ethylcarboxylate-7-hydroxycoumarin”, the pKa was 3.8.

Usually pKa stands for the negative logarithm of the acid dissociation constant.
